Results from ChEMBL document CHEMBL2057199, “Development of novel M1 antagonist scaffolds through the continued optimization of the MLPCN probe ML012” (Bioorg Med Chem Lett, 2012).

The chains behind the UniProt entries cited, without tags or fusion partners. Where a name states a change or a piece, a line headed by the entry shows the natural chain unless it says otherwise.
UniProt P20309, whole entry, looked up: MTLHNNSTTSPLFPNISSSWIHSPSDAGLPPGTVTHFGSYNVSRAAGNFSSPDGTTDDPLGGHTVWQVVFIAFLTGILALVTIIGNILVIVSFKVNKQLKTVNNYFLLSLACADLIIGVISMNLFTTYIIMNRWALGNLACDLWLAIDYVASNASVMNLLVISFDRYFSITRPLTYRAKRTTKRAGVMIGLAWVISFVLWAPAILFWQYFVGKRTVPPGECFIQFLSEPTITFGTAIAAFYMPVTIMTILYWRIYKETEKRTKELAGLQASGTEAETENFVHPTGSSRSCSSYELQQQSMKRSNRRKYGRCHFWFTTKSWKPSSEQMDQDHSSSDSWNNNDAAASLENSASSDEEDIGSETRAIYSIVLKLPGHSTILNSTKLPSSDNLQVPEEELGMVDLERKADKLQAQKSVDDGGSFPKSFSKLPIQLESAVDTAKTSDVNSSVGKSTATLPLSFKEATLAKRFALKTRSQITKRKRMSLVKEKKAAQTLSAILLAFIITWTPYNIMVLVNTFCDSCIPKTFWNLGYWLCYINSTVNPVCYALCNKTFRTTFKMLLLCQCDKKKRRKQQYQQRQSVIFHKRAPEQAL
UniProt P11229: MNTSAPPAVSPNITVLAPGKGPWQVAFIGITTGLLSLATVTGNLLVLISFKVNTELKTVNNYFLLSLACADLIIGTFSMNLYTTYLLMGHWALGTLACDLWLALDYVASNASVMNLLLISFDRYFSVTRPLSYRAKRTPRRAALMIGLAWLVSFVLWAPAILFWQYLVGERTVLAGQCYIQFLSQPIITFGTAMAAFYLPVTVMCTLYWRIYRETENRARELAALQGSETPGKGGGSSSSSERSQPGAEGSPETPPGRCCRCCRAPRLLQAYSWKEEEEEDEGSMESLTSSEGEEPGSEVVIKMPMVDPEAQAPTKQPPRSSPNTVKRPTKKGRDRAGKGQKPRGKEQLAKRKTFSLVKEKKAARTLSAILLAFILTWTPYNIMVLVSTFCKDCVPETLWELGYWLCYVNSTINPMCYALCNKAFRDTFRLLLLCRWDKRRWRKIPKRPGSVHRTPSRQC
UniProt P08172, whole entry, looked up: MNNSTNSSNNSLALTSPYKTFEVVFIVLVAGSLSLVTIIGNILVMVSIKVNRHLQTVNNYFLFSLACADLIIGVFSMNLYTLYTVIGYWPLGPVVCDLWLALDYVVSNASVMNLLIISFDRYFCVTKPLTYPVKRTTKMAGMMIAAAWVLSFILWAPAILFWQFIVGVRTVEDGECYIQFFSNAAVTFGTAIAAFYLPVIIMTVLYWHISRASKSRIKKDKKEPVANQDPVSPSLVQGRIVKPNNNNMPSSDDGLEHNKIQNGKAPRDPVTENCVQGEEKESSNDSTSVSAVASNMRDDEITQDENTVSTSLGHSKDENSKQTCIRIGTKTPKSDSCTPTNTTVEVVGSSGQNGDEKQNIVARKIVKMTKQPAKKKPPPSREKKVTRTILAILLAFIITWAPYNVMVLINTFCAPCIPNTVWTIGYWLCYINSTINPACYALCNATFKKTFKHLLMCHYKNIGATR

Assays:
[1] = species on record: Homo sapiens; experiment: Selectivity for human muscarinic M1 receptor over human muscarinic M4 receptor
[2] = molecular target: Muscarinic acetylcholine receptor M1 and M3 (Homo sapiens) (UniProt P20309+P11229); experiment: Selectivity for human muscarinic M1 receptor over human muscarinic M3 receptor
[3] = species on record: Homo sapiens; experiment: Selectivity for human muscarinic M1 receptor over human muscarinic M5 receptor
[4] = molecular target: Muscarinic acetylcholine receptors; M1 & M2 (Homo sapiens) (UniProt P11229+P08172); experiment: Selectivity for human muscarinic M1 receptor over human muscarinic M2 receptor

Measured: Selectivity ratio

O=C(CCNS(=O)(=O)c1cccc2nsnc12)N1CCN(c2ccncc2)CC1
45: [1] | [2] | [3] | [4]
